These results are taken from patent US20100130514A1, “FUSED HETEROCYCLIC DERIVATIVE, PHARMACEUTICAL COMPOSITION COMPRISING THE DERIVATIVE, AND USE OF THE COMPOSITION FOR MEDICAL PURPOSES” (Kissei Pharmaceutical Co., Ltd., priority 2007, published 2010).

By UniProt entry, the sequences of proteins in these tests, tags left out.
UniProt P30968, whole entry: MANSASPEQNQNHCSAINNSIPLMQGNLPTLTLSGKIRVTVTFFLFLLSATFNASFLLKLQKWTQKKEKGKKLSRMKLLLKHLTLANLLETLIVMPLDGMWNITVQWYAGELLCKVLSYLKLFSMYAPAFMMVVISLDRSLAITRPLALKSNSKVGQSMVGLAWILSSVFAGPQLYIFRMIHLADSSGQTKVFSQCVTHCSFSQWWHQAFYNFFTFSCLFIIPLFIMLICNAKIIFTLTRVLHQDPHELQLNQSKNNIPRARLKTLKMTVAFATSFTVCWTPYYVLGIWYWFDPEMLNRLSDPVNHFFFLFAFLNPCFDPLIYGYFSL

One data set addresses human GnRHR1 (Homo sapiens, UniProt P30968). The data set is described as follows: Inhibitory effect for the change of calcium levels in GnRH-stimulated cells (hGnRHR1#1 HEK293 cells). The following applies: read-out: IC50 (drug concentration at which 50% GnRH-stimulated intracellular calcium flux was inhibited); HEK293 cells stably expressing human GnRHR1; 10 nM GnRH added; FLIPR Calcium Assay Kit. The source says:
1) Cloning and Construction of the Vector Expressing Human GnRH Receptor1 (GnRHR1)
Using cDNA derived from human pituitary (BECTON DICKINSON) as a template, the DNA fragment coding 45 to 1115 by of human GnRHR1 (Accession No. L03380), which was reported by Kakar et al., was amplified by PCR method and inserted into the multi-cloning site of pcDNA3.1(+) (Invitrogen). The DNA sequence inserted was perfectly matched to the previously reported sequence.
2) Establishment of Cell Line Stably Expressing Human GnRH Receptor1 HEK293 Cells
The expression vector of human GnRHR1 gene, was digested by XhoI into a linear DNA. The linear DNA was transfected into HEK293 cells by means of lipofection (Lipofectamine2000: Invitrogen). Neomycin resistant cell lines were selected by culture in the medium containing G418 (Invitrogen) at 1 mg/mL, and then the change of calcium levels in GnRH-stimulated cells was measured by the method described below.
3) Assay of Inhibitory Effect for the Change of Calcium Levels in GnRH-Stimulated Cells
Antagonizing effect of compounds for human GnRHR1 was evaluated by depression of calcium levels in GnRH-stimulated cells. hGnRHR1#1 cells were seeded into a 96-well culture plate at a density of 1.5×10^5 cells/well and cultured for a day. […] Then, intracellular calcium levels were determined under the following condition by using FLEX STATION (Molecular Devices). […]
A general note: A change in cytosolic calcium serves as a functional read-out for many receptors and channels.

Data set [1] in a line: Assay for oral absorbability: plasma drug concentration after oral administration. The note with it: overnight fasted male SD rats, 3 mg/kg. How it is done: Assay for Oral Absorbability
1) Preparation of the Samples for Measurement of the Drug Concentration After Oral Administration
As experimental animal, overnight fasted SD rats (Charles River, male, 7 weeks of age, 170-210 g) were used. Three mg of a test compound was dissolved by adding 0.2 mL of N,N-dimethylacetoamide, 9.794 mL of 0.5% aqueous methylcellulose solution and 0.006 mL of 2N NaOH, and then 0.3 mg/mL solution was prepared. The body weights of rats were measured, and the solution of the test compound was administered orally at the dose of 10 mL/kg (3 mg/kg). The oral administration was performed with gastric tube for rat and 2.5 mL syringe. The sampling times for collection of blood were 15, 30, 60, 120, 240 and 360 minutes after the oral administration. The blood was centrifuged, and the plasma was used as the sample for measurement of the drug concentration in blood.
2) Measurement of the Drug Concentration
To 0.025 mL of the plasma obtained in 1) described above, 0.1 mL of an adequate internal standard material was added according to the usual method, and then deproteinization was performed by adding 0.875 mL of acetonitrile. After centrifugation, 0.005 mL of the supernatant was injected into LC-MS/MS. The drug concentration in plasma was measured by LC-MS/MS method under the conditions as follows. […]

With `O=C(O)c1scc2[nH]c(=O)n(-c3cc(S(=O)(=O)N4CCCc5ccccc54)ccc3Cl)c(=O)c12`, at human GnRHR1, the IC50 is 0.018 µM. Also, the “C360 (plasma drug concentration at 360 minutes after administration)” value in data set [1] was 21.
